We go through 1 compound from patent publication US9212153B2, “Inhibitors of beta-secretase” (Vitae Pharmaceuticals, Inc., priority 2009, dated 2015).

The structures appear in SMILES notation.

The target of the assay is truncated human beta-secretase (residues 1-458, His6-tagged at the C-terminus) (Homo sapiens (Human), UniProt P56817). Put plainly: BACE enzyme assay (fluorescence quench, Example 434A). Format: biochemical.

Consider `CN(C)C(=O)C1=CCC2(CC1)Cc1ccc(-c3cccc(C#N)c3)cc1C21N=C(N)N(C)O1` (stereo not shown) [Compound 458], for which 3.7 µM corresponded to half-maximal inhibition (IC50).
